Results as given in article PMC9764201, “Half-calcified calmodulin promotes basal activity and inactivation of the L-type calcium channel CaV1.2” (The Journal of Biological Chemistry, 2022).

What was measured:
[1] = test system: Ca2/CaMC; conditions: Figure 1; cited from earlier work
Text: (§1) Figure 1 Apparent Ca^2+-binding affinity of the CaM C-lobe bound to IQ (CaMC-IQ).

[2] = biological target: CaMC; conditions: Figure 1; dissociation of CaMC-IQ; read-out: K3; cited from earlier work
Text: as §1

[3] = biological target: T1, Ca2/CaM12’ (Xenopus laevis, UniProt P0DP33, D21A/D23A/D25A/D57A/D59A/E32Q/E68Q/N61A); experiment: NMR of Ca2/CaM12’-IQ; assay type: binding; conditions: 303 K
T1 construct: made in house; host or cells: E. coli BL21(DE3) Codon Plus, pET11d
Text: The CaM12’ mutation ((D21A/D23A/D25A/E32Q/D57A/D59A/N61A/E68Q) was introduced into Xenopus CaM complementary DNA by PCR QuickChange procedure ([39]). The mutated complementary DNA was inserted into the NcoI/BamHI sites of a pET11d vector and verified by automated Sanger sequencing. The recombinant CaM12’ protein was expressed from a pET11d vector in a BL21(DE3) Codon Plus Escherichia coli strain (Stratagene) and purified as described previously ([40]). The CaV1.2 IQ peptide (residues 1644–1664) was purchased from ChinaPeptides. The peptide was dissolved in d6-dimethyl sulfoxide to give a peptide concentration of 7.8 mM. The peptide concentration was determined by measuring absorbance at 280 nm with ε280 = 2980 M^−1 cm^−1. […]
All NMR measurements were performed at 303 K using a Bruker Avance III 600 MHz spectrometer equipped with a four-channel interface and triple-resonance cryoprobe. […] Two-dimensional NMR experiments (heteronuclear single quantum coherence [HSQC] and HSQC-IPAP) were recorded on samples of ^15N-labeled Ca2/CaM12’ (0.5 mM) bound to unlabeled IQ (0.75 mM). […] Three-dimensional NMR experiments for assigning backbone and side-chain resonances, and NOESY distance restraints were analyzed as described previously ([42]). NMR data were processed using NMRPipe ([43]) and analyzed with SPARKY (Goddard T.D. and Kneller D.G., University of California at San Francisco). […]

[4] = test system: CaMN; conditions: physiological conditions; cited from earlier work
Text: On the basis of previous binding data ([14], [18]), the C-lobe under basal conditions is predicted to bind two Ca^2+ to form a half-calcified state (called Ca2/CaM) in which the N-lobe is devoid of Ca^2+ ([19]). […] Using the binding constants from ([14], [18]) the relative concent ... || Figure 2 Apparent Ca^2+-binding affinity of the CaM N-lobe bound to IQ (CaMN-IQ). […] K1 and K2 are assigned here to the complex formed and K3 to the complex that dissociates; this choice of label is uncertain. / The numbers (18) and (14) printed after the equations look like citation numbers, not compound numbers, and were left out.

[5] = biological target: T1, Ca2/CaM12’; experiment: ITC of Ca2/CaM12’ binding to IQ peptides; conditions: for ΔH: SD from three independent trials
[6] = biological target: apoCaM (Xenopus laevis, UniProt P0DP33); conditions: ITC, absence of salt; cited from earlier work
Text: CaV1.2 is the main L-type channel in heart, blood vessels, and brain ([1], [2]). Ca^2+ influx through CaV1.2 triggers cardiac contraction, regulates arterial tone ([1]), mediates synaptic long-term potentiation ([3], [4]), controls neuronal excitability ([5]), and mediates Ca^2+-dependent gene expression ([6]). Defects in inactivation of CaV1.2 cause Timothy syndrome, a rare congenital abnormality leading to lethal arrhythmias, autistic-like behaviors, and immune deficiency ([7]).

[7] = biological target: T1, Ca2/CaM12’; experiment: Fluorescence polarization, Ca2/CaM12’ binding to fluorescein-labeled IQ peptides; conditions: Fig. 4F compared to apoCaM of refs 14, 15
Text: The NMR structure of Ca2/CaM12’-IQ (Fig. 4D) looks quite different from the recent NMR structure of apoCaM bound to IQ ([15]). In the apoCaM-IQ structure, K1662 forms intermolecular salt bridges with CaM residues, E85 and E88. […] This analysis predicts that the CaV1.2 mutation K1662E weakens binding to apoCaM more than it does to Ca2/CaM12’. […] The free concentrations of Ca2/CaM12’ ([Ca2/CaM12^′]free=[Ca2/CaM12^′]total−[IQ]×(fractionalsaturation)) are within the sample noise level during the first half of the titration when [Ca2/CaM12^′]free<100nM (see SD bars in Fig. 4F). […]
Fluorescein-labeled peptides (100 nM; ChinaPeptides) were titrated with increasing concentrations of purified Ca2/CaM12’ in FP buffer (20 mM Tris, pH 7.4, 100 mM KCl, 1 mM MgCl2, 1.0 mM CaCl2) or apoCaM in Ca^2+-free buffer (20 mM Tris, pH 7.4, 100 mM KCl, 1 mM MgCl2, 2.0 mM EGTA). FP was measured with a Synergy 2 plate reader (BioTek) as described ([52]). FP was calculated as P = (Iv - g∗Ih)/(Iv + g∗Ih); Iv and Ih are vertical and horizontal fluorescence intensity, respectively, and g is the correction factor for fluorescein. To obtain binding curves and KD values, data were fitted in GraphPad Prism 5 (GraphPad Software Inc) to the equation Y = B∗X/(Kd + X); B is maximal FP value that would be reached at saturation as determined by extrapolation of the fitted curve.

Structure (SMILES): CC[C@H](C)[C@H](NC(=O)[C@H](CC(C)C)NC(=O)[C@H](Cc1ccccc1)NC(=O)[C@@H](NC(=O)[C@H](C)NC(=O)[C@H](Cc1ccc(O)cc1)NC(=O)[C@H](Cc1ccccc1)NC(=O)[C@H](CCCCN)NC(=O)CNC(=O)[C@@H](NC(=O)[C@@H](N)[C@@H](C)O)C(C)C)[C@@H](C)O)C(=O)N[C@@H](CCC(N)=O)C(=O)N[C@@H](CCC(=O)O)C(=O)N[C@@H](Cc1ccc(O)cc1)C(=O)N[C@@H](Cc1ccccc1)C(=O)N[C@@H](CCCNC(=N)N)C(=O)N[C@@H](CCCCN)C(=O)N[C@@H](Cc1ccccc1)C(=O)N[C@@H](CCCCN)C(=O)N[C@@H](CCCCN)C(=O)N[C@@H](CCCNC(=N)N)C(=O)O [IQ^WT]
- K2 [1]: 10^7 M^-1
- Kd [2]: 10 µM
- NMR structural finding on the IQ peptide in the complex ([3]; Tris-d11 pH 7.5, 1.0 mM CaCl2): make extensive contacts with CaM C-lobe residues (E85, A89, F93, M110, L113, M125)
- NMR structural finding on the IQ peptide in the complex ([3]; Tris-d11 pH 7.5, 1.0 mM CaCl2, listed as IQ peptide): does not make any contacts with the Ca^2+-free N-lobe; also recorded: helical conformation
- binding of IQ to apoCaM N-lobe [4]: does not bind to IQ
- ΔH ([5]; 27 °C): -10 kcal/mol
- ΔH ([5]; 37 °C): -15 kcal/mol
- predicted KD increase when temperature is increased from 27 °C to 37 °C ([5]; predicted from ΔH°): 2.3 fold
- affinity [6]: submicromolar affinity
- affinity for Ca2/CaM compared to apoCaM [7]: at least 100 fold

Entries after “also recorded” stand apart in the source; their conditions may differ.
